Target: heparinase I (Pedobacter heparinus, UniProt Q05819)
Assay: WRK and EDC inactivation of heparinase I, protection by calcium and heparin
Assay type: biochemical, Flavobacterium heparinum

By UniProt entry, the sequences of proteins in these tests, tags left out. Where a name states a change or a piece, a line headed by the entry shows the natural chain unless it says otherwise.
UniProt Q05819: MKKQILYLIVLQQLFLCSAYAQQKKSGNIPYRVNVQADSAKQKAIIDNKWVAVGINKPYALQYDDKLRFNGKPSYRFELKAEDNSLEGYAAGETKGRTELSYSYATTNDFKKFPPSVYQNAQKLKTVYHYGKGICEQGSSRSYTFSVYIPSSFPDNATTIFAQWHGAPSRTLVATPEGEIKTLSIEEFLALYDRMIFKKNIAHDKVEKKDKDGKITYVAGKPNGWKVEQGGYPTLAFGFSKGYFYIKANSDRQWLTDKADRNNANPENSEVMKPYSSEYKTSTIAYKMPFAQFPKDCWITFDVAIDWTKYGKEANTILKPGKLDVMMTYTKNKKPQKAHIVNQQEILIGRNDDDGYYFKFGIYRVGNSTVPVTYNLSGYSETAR

Woodward's Reagent K
second order rate constant of inactivation (0-400 μM WRK): 132 M⁻¹ s⁻¹
κinact (preincubation with calcium alone, large calcium concentrations): 2.1 min⁻¹
κinact (preincubation with heparin plus calcium): 1.2 min⁻¹

From patent US7560106B2, “Rationally designed heparinases derived from heparinase I and II and methods of sequencing therewith” (Massachusetts Institute of Technology, priority 1998, dated 2009)
